This note sets out measurements from patent US11198695B2, “Fused ring derivative having MGAT-2 inhibitory activity” (Shionogi & Co., Ltd., priority 2017, dated 2021).

Chains of the proteins cited; added tags and fusions are not shown.
UniProt Q3SYC2, whole entry: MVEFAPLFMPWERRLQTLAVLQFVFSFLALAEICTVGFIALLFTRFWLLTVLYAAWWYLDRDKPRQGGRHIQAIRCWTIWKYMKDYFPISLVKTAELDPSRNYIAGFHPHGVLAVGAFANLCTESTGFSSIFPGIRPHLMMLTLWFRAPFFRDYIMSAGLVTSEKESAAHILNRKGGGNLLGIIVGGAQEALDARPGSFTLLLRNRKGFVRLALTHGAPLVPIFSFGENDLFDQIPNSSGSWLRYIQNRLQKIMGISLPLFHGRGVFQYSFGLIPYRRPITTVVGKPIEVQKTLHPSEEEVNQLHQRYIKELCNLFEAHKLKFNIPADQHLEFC

In brackets after ≈: the same amount, converted by molar mass. Where two headings read alike, the source gives them in different places.

A short description of data set [1]: Metabolism stability test. As to conditions: human liver microsomes, 30 minutes, 37° C., NADPH, 0.5 μmol/L of test compound. The procedure:
Using commercially available pooled human hepatic microsomes, the compound of the present invention was reacted for a constant time, a remaining rate was calculated by comparing a reacted sample and an unreacted sample, thereby, a degree of metabolism of the compound of the present invention in liver was assessed.
A reaction was performed (oxidative reaction) at 37° C. for 0 minute or 30 minutes in the presence of 1 mmol/L NADPH in 0.2 mL of a buffer (50 mmol/L Tris-HCl pH 7.4, 150 mmol/L potassium chloride, 10 mmol/L magnesium chloride) containing 0.5 mg protein/mL of human liver microsomes. After the reaction, 50 μL of the reaction solution was added to 100 μL of a methanol/acetonitrile=1/1 (v/v) solution, mixed and centrifuged at 3000 rpm for 15 minutes. The compound of the present invention in the supernatant was quantified by LC/MS/MS, and a remaining amount of the compound of the present invention after the reaction was calculated, letting a compound amount at 0 minute reaction time to be 100%. (Result) Remaining rate was shown at 0.5 μmol/L of test compound.
In general terms: Liver microsomes are a subcellular fraction often used to study metabolism.

Data set [2] is described as follows: Solubility test (1% DMSO addition, pH 6.8 artificial intestinal juice). As to conditions: 16 hours at 25° C.
A further data set has as its system sheep erythrocyte. Put plainly: Phototoxicity test (erythrocyte photohemolysis test). To be noted: sheep erythrocytes, UVA and UVB 10 J/cm^2. The procedure:
An erythrocyte photohemolysis test (Wolfgang J. W. Pepe et al., ATLA29, 145-162, 2001), which was an evaluation method using effect to biomembranes and photoperoxidation as indexes, was conducted as an In vitro phototoxicity test. In this method, a solution of the compound of the present invention was prepared with dimethylsulfoxide as a medium, to which a sheep erythrocyte solution in a ratio of 2.5% (v/v) with respect to the prepared solution was added, and the thus-obtained mixed solution (concentration: 0.1 to 0.0008%) was used. The mixed solution was added to two microplates, and one of the prepared microplates was irradiated with light in UVA and UVB regions (10 J/cm^2, 290 to 400 nm) by using an ultraviolet fluorescence lamp (GL20SE lamp, SANKYO DENKI Co., Ltd., and, FL20S-BLB lamp, Panasonic Corporation), and subjected to centrifugation together with the microplate without irradiation with light, and then the absorbance (540 nm or 630 nm) of the supernatant was measured. To determine two indexes (effect to biomembranes and photoperoxidation) for evaluation of phototoxicity, the absorbance of the medium was subtracted from the absorbance obtained from the compound of the present invention for each of the cases with and without irradiation with light, and the thus-calculated values were used for the subsequent calculations. […]

For another data set, the target named is recombinant human MGAT2 (Homo sapiens (Human), UniProt Q3SYC2). Put plainly: Measurement of human MGAT2 inhibitory activity. On the procedure:
A full-length human MGAT2 gene to which a Flag-tag had been added at the N-terminal was inserted into pFastBac (from Invitrogen). A recombinant baculovirus was produced in accordance with the protocol for a Bac-to-Bac baculovirus expression system (produced by Invitrogen), and Sf-9 cells were infected therewith. The cells were collected and sonicated, and then the membrane fraction was collected through centrifugation. Western blotting analysis with an anti-Flag antibody was performed for the membrane fraction to confirm expression, and the membrane fraction was used as a recombinant human MGAT2 enzyme solution.
Solutions of the compounds of the present invention in DMSO were each aliquoted into 0.2-μL portions in a 384-well polystyrene microplate produced by Corning Incorporated, and 5 μL of an enzyme solution prepared with an assay buffer (100 mmol/L phosphate buffer (pH 7.4) containing 2 mmol/L DTT) and 5 μL of a substrate solution (100 mmol/L phosphate buffer (pH 7.4), 30 μmol/L 2-Oleoylglycerol, 10 μmol/L Oleoyl-CoA) were added thereto, and the resultant was stirred and centrifuged, and incubated in a moist chamber at room temperature for 1 hour. After enzymatic reaction, 50 μL of a quenching solution (containing 0.2 μmol/L Diolein-d5, 0.4% formic acid, and 50% isopropanol) containing Internal Standard (IS) was added to terminate the reaction, and the resultant was sealed in a plate produced by Shimadzu GLC Ltd., and then stirred and centrifuged, and measurement was performed by using an electrospray ionization method with a RapidFire360 and Agilent 6550 Q-TOF mass spectrometer. Diolein as a reaction product (P) of 2-Oleoylglycerol as the substrate and an ammonium adduct ion of the IS were detected, and the peak intensity ratio, P/IS, was calculated from the peak heights to evaluate the inhibitory activity. Inhibitory activities with/without addition of enzyme were defined as Control (+)/Control (−), respectively, and the respective % inhibitions were defined as 0% inhibition and 100% inhibition. The inhibitory activity was calculated from formula below with TIBCO Spotfire (produced by TIBCO Software Inc.): Inhibitory activity (%)=[1−{Sample−Control(−)}/{Control(+)−Control(−)}]*100 where Sample indicates a peak intensity ratio: P/IS, when the compound of the present invention was added.

[3] abbreviates: read-out: IC50 (concentration exhibiting 50% enzyme inhibition), Table 52.
Where [4] appears, read: read-out: IC50 (concentration exhibiting 50% enzyme inhibition), Table 53.

For `CS(=O)(=O)CC(=O)Nc1c2c(nn1-c1ccccc1)C[C@]1(CCc3cc(OCCCC(F)(F)F)ccc31)NC2=O`, the “Remaining rate (%)” value in data set [1] stood at 87.6%. Besides, the Solubility (commonly how much of the substance goes into solution per volume) in data set [2] turned out to be 36.6 µM (≈ 21.1 µg/mL). Moreover, the “Phototoxicity judgement (photohemolysis rate and change in absorbance at 630 nm)” value in the data set on sheep erythrocyte is “(−) (It was judged to be (−) when the photohemolysis rate was less than 10% and the change in the absorbance at 630 nm was less than 0.05)”.

Take `Cc1ccc(-n2nc3c(c2NC(=O)CS(C)(=O)=O)C(=O)N[C@@]2(CCOc4cc(C5CC5)ccc42)C3)nc1`: the “Remaining rate (%)” value in data set [1] came to 91.6%. Further, the “Solubility” value in data set [2] was greater than 50 µM. Take `CC(=O)NCc1c2c(nn1CCC1CC1)C[C@]1(CCc3cc(OCCCC(F)(F)F)ccc31)NC2=O`: in data set [1], the “Remaining rate (%)” value is 1.88%. Also, on recombinant human MGAT2 (setting [3]), the IC50 was 59 nM. In addition, the “Solubility” value in data set [2] is 15.8 µM (≈ 7.97 µg/mL). As to `Cc1ccc(-n2nc3c(c2NC(=O)CS(C)(=O)=O)C(=O)N[C@@]2(CCOc4cc(F)cc(F)c42)C3)nc1`, the “Remaining rate (%)” value in data set [1] stood at 104%. In addition, the “Solubility” value in data set [2] was greater than 50 µM. For the molecule `CS(=O)(=O)CC(=O)Nc1nc(CCC2CC2)nc2c1C(=O)N[C@@]1(CCc3cc(OCC(F)(F)F)ccc31)C2`, the IC50 on recombinant human MGAT2 (setting [3]) amounted to 99 nM. For `CS(=O)(=O)NC(=O)c1c2c(nn1CCC1CC1)C[C@]1(CCc3cc(OCCCC(F)(F)F)ccc31)NC2=O`, the “Remaining rate (%)” value in data set [1] was found to be 96.8%. Besides, at recombinant human MGAT2 (setting [3]), the IC50 turned out to be 21 nM. For the same molecule, the “Solubility” value in data set [2] amounted to 25.9 µM (≈ 14.4 µg/mL).

In the case of `COCCn1nc2c(c1NC(=O)CS(C)(=O)=O)C(=O)N[C@@]1(CCc3cc(OCCCC(F)(F)F)ccc31)C2`, the IC50 on recombinant human MGAT2 (setting [3]) was found to be 120 nM.

For `CS(=O)(=O)CC(=O)Nc1c2c(nn1CCC1CC1)CC1(Cc3ccc(OCC(F)(F)F)cc3C1)NC2=O` (single isomer, unassigned) [I-282], on recombinant human MGAT2 (setting [3]), the IC50 is 86 nM. Regarding `CS(=O)(=O)CC(=O)Nc1c(-c2ccccc2)nc2n1C(=O)N[C@@]1(CCc3cc(OCC(F)(F)F)ccc31)C2`, at recombinant human MGAT2 (setting [3]), the IC50 worked out at 330 nM. For the molecule `CS(=O)(=O)CC(=O)Nc1c2c(nn1-c1ccc(C#N)cn1)CC1(CN(c3ccc(C(F)(F)F)cc3)C1)NC2=O`, the IC50 at recombinant human MGAT2 (setting [4]) was 5.1 nM. With `CS(=O)(=O)CC(=O)Nc1c2c(nn1CCC1CC1)CC1(Cc3ccc(OCC(F)(F)F)cc3C1)NC2=O` (single isomer, unassigned) [I-283], the IC50 on recombinant human MGAT2 (setting [3]) turned out to be 91 nM.

As to `CS(=O)(=O)CC(=O)Nc1c2c(nn1-c1ccc(C#N)cn1)CC1(CN(c3ccc(C(F)(F)F)cn3)C1)NC2=O`, on recombinant human MGAT2 (setting [4]), the IC50 turned out to be 14 nM.
